{"sequences": {"note": "By UniProt entry, the sequences of proteins in these tests, tags left out. Residues count along the entry.", "UniProt P09619, 33-1106": "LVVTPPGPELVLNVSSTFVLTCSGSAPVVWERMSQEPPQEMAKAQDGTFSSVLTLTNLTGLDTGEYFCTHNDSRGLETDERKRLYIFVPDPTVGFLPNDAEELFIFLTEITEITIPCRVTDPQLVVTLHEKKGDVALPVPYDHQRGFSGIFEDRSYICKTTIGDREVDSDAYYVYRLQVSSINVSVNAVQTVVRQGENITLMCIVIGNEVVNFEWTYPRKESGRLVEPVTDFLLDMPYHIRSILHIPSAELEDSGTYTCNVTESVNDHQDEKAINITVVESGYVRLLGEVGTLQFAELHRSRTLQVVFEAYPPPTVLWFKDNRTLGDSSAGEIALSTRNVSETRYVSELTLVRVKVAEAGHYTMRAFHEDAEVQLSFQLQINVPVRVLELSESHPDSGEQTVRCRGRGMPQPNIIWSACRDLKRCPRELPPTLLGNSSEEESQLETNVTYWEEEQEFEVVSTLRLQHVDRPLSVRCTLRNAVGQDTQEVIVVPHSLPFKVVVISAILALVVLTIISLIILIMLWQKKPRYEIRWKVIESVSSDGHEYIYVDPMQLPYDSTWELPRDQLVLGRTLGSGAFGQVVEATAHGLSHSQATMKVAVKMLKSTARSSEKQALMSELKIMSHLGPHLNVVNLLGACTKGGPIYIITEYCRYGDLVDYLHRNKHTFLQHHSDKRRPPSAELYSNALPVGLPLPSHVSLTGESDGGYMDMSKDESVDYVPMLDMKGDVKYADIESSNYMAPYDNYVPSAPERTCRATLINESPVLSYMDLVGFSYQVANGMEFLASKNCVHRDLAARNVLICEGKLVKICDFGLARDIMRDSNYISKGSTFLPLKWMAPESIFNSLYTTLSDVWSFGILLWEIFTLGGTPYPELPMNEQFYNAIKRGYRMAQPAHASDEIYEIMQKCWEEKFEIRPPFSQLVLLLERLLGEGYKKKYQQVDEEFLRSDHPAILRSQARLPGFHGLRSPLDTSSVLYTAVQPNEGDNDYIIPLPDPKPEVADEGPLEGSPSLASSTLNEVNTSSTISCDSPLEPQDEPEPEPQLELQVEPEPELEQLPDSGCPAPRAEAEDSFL"}, "source": "patent US20150374767A1", "about": "“Treatment of Cancer” (priority 2013, published 2015)", "origin": "cited, not measured here", "target": "PDGFRβ (Homo sapiens, UniProt P09619)", "conditions": "cited from earlier work"}
{"substance": "1-amino-5-fluoro-3-(6-(4-methylpiperazin-1-yl)-1H-benzo[d]imidazol-2-yl)quinolin-2(1H)-one [Dovitinib]", "values": [{"measurement": "IC50", "result": 27, "unit": "nM"}]}
